## Apparent affinities of Ab-14 variants for a coronavirus HR2 peptide

The measurements come from Li et al. 2023 (doi:10.1038/s41467-023-39022-2) through the FLAb antibody collection.

All variants were tested on one target, the spike HR2 peptide PDVDLGDISGINAS (SARS-CoV-2).

Ab-14 is the parent antibody, in scFv form: VH, then three GGGGS repeats, then VL. The heavy chain is unchanged in all variants.
VH: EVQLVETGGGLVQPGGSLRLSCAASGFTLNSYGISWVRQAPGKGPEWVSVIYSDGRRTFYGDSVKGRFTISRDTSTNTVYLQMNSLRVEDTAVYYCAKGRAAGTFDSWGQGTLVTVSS
VL: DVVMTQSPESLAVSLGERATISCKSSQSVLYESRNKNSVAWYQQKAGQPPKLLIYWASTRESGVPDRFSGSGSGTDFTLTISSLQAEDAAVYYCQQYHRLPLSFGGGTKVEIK

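Phage display of a naive human antibody library on the peptide gave the parent. The variants were designed computationally from a first round of random CDR variants and then made and measured. Several design methods are mixed in this list. The assay is AlphaSeq: two haploid yeast populations carry antibody and antigen on their surface. Pairs that bind mate more often; barcode pairs of the diploids are counted by sequencing. A regression on co-assayed BCL2-family reference pairs converts the normalised counts of each replicate to an apparent Kd. There are six technical replicates.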

Each variant is given by its three light chain CDRs, as the data file delimits them; those of the parent are KSSQSVLYESRNKNSVA, WASTRES, QQYHRLPLS. Numbers give log10(Kd / nM), so 0 is 1 nM and 3 is 1 µM. Smaller is tighter. Replicates are averaged; those with no signal do not enter the mean. Where no diploid with the target was found in any replicate, the entry reads "nd": below detection, most likely a poor binder, though not proof of it. Entries are sorted by rising average, undetected variants last. Nonspecific signal, from three strains lacking the peptide, appeared in 4% of pairings of all light chain designs, centred on 2.64 (5% of these signals below 1.59); values are not corrected for it. For each scFv, signals with the empty controls are counted beside the result.

CDR-L1,CDR-L2,CDR-L3,mean log10 Kd (nM),seen in,signal with controls
KLSQSFLYESRNKNNVA,DASTRES,QQYHRLPLS,-0.62,6/6,0/18
KLQQSDLYESRNKNSVA,GASTRES,QQYHRLPLS,-0.35,6/6,3/18
KLSESVLYESRNKNSVA,DASTRES,QQYHRLPLS,-0.30,6/6,2/18
KLSQSMWYESRNKNSVA,NASTRES,QQYHRLPLS,-0.29,6/6,2/18
KLMGSAEYESRNKNSVA,EASTRES,QQYHRLPLS,-0.29,6/6,1/18
KVQQSYLYESRNKNSVA,NASQRES,QQYHRLPLS,-0.27,6/6,3/18
KLSQSVLYESRNKNSVA,EASTRES,QQYQRLPLS,-0.27,6/6,0/18
HLSWVWPYESRNKNSVA,NASTRES,QQYHRLPLS,-0.11,6/6,0/18
HSSQSVPYESRNKNSVA,NASTRES,QQYHRLPLS,-0.10,6/6,1/18
KLQQSVMYESRNKNSVA,EASTREV,QQYHRLPLS,-0.09,6/6,0/18
KVPQSWLYESRNKNSVA,NASQRES,QQYHRLPLS,-0.08,6/6,1/18
KLMQSWDYESRMKNSVA,DASKRSS,QQYHRLPLS,-0.03,6/6,2/18
KSSQSVLYDSRNKNSVA,AASTRES,QQYARLPLS,-0.01,6/6,0/18
KESQSVLFEWRNKNSVA,DASTREQ,QQYHRLPLS,0.00,6/6,1/18
KVSQSMWYESRMKNSVA,NASYREQ,QQYHRLPLQ,0.03,6/6,0/18
KQSQSEGGESRNMNNVA,HASQRES,QQYHRLPLS,0.13,6/6,1/18
KSSISSLYESRMKNSVA,EASTRES,QQYHRLPLS,0.15,6/6,0/18
KMPQSVLYESQNKNSVA,WASTRES,QQYLRLPLS,0.16,6/6,1/18
KLPMATMVESLSKNNVA,ELSTRGS,QQYNRLPLS,0.22,6/6,0/18
KSSQSVLYETRNENSVA,HASTRES,QQYFRLPLS,0.24,6/6,0/18
KLSCSMEYESRNKNSVA,NASTREE,GQYHRLPLT,0.32,6/6,1/18
MLPESLPQQQDNVNAVA,GAQHTAV,QQYGRLPLT,0.32,6/6,1/18
KSSISYLYESRNENSVA,EASTREQ,QQYHRLPLS,0.33,6/6,2/18
KSDQSVLQESRNKNSVA,NASTRES,QTYHRLPLS,0.35,6/6,0/18
TLYGLTNSMSKNSNNVA,EMSTREA,QQYDRLPLV,0.36,6/6,1/18
KLSQSVLYEERNKNSVA,EASTRLS,QQYHRLPLS,0.41,6/6,0/18
KFSPSVYYESRTKNSVA,DASTRES,QQYHRLPLS,0.44,6/6,0/18
KIYQGINTHLGAHSSIA,QEETRLE,QQYAHLPLS,0.47,6/6,2/18
KFSQWVLYESRLKNSVA,NASTRES,QQYHRLPLS,0.48,6/6,0/18
KSLQSVLYESRNKNSVA,HASTRED,QQYHRLPLM,0.50,6/6,0/18
HSSPSEEYESRNKNSVA,NASSRES,QQYHRLPLS,0.55,6/6,0/18
HLGGLMTWEEKNRNSVA,QQETRAK,QQYHHLPLS,0.60,6/6,1/18
KVSQSLLYEQRNKNSVA,WASERES,QQYHRLPLS,0.62,6/6,1/18
TLGDVTRMESNKKSSIA,DMSNRAD,QQYHRLPIS,0.67,6/6,1/18
KFDLLMNDEKSANKNVA,GNVHHMA,QQYERLPLS,0.70,6/6,0/18
HITYGMQVAGRHSSSIA,QAEERAK,QQYDRLPLS,0.71,6/6,1/18
KSLASWLYESRNKNSVA,HASTREQ,QQYHRLPLS,0.73,6/6,0/18
KVSQSELYESRNKNNVA,EASTRES,QQYHRLPLS,0.76,6/6,0/18
KMQGSVMMLSRNCNSVA,QASTREE,QQYHRLPLS,0.77,6/6,3/18
KSSQSVLYESRNKNSVA,SASTRES,QQYHRLKLS,0.95,5/6,0/18
RLRFQQLGMSYDANHIA,GATNRIK,QQYGRLPLT,1.15,6/6,0/18
SLAFTQHFGQSGGSAVA,EVQMREQ,QQYFRLPLG,1.19,6/6,0/18
VLPDPLLMFEMQYHSIA,EGVQRME,QQYERLPLT,1.20,5/6,0/18
QITGEQSMRTQGNWNIA,QAEQKVH,QQYDRLPLA,1.22,6/6,1/18
KSSQTVLYESRNKNSVA,WASTRES,QQYHRLPLS,1.26,6/6,0/18
TLYGLSNMMSKNKNSVA,EMTTREK,QQYDRLPLV,1.32,6/6,1/18
MISEMMHMIGARKNSIA,DLVMRAN,QQYHRLPLS,1.33,6/6,0/18
HSSPSVLYESRNKNSVA,NASTRES,QWYRRLPLS,1.34,6/6,0/18
MISDLMLKGSRNKNPIA,NASTREY,QQYHRLPLS,1.35,6/6,0/18
KSSYSWLYESRNKNSVA,WASTRES,QQYHRLPLS,1.40,2/6,0/18
KLSNSVLYESRNKNSVA,WASTRES,QQYHDLPLS,1.50,6/6,2/18
HVHSLMAIWQEISNNVA,DAQNRNA,QQYFRLPLA,1.55,2/6,0/18
KLRQLMHIESFNKNNVA,EMTTRES,QSYDRLPLS,1.63,5/6,0/18
SMFEKEYEELQPENNIA,DETERMV,QQYFRLPLL,1.67,1/6,0/18
QINMEMNHDLDDAQNVA,DAMTEVK,QQYNRLPLS,1.74,1/6,0/18
ELRMKELGMSYNANNVA,DSENRIK,QQYYRLPLM,1.83,6/6,1/18
KITMTMRFEQKNTNNIA,EVSTRSK,QQYVRLPLA,1.85,5/6,0/18
SLHMYTLTEKNANNSIA,EKSYRAI,QQYSHLPLV,1.88,6/6,2/18
RITEQYFEHMGNCNNVA,EAECKQY,QQYAHLPLL,2.05,5/6,0/18
KSSQSVRYESRNKNSVA,HASTREG,QQYHWLPLL,2.06,1/6,0/18
KSSQSVLYDSTNLNSVA,WASTRES,QQYMRLPLD,2.34,2/6,1/18
KSSQSVLYESRNKNSVA,QASTRFS,QQYHRLPNS,2.44,6/6,0/18
KSSQSVLYESRNKNSVA,WASHRES,QQYHRLPVS,2.54,1/6,0/18
KLSQSGLYESRNKNSVA,DASTRES,YQYHRLPSS,2.58,1/6,1/18
KIRNDFYEGIQNASNVA,GHHESID,QQYSMLPLI,3.18,2/6,0/18
KSSQMVLYESRNKNSVA,WASTRES,QQYHRLMLS,nd,0/6,0/18
KSSWSVLFNSRNKNSVA,DASTRES,QQLHRLPLS,nd,0/6,0/18
MISQLYNMGSFAINSVA,QASVRYE,QQYDRLPLQ,nd,0/6,0/18
KSSQSQLDESRNKNSVA,WATTRES,QQPHRLPLS,nd,0/6,0/18
MISQLMNMGQFAINSVA,QASIRNS,QQYDRLPLT,nd,0/6,0/18
MISQLMNLGQFAINSVA,QATIRNS,QQYDRLPLT,nd,0/6,0/18
MVSQLMVWGMHARNSIA,EAEHRCN,QQYDRLPLF,nd,0/6,0/18
KSSQSVLYESRNKNFVA,WASTRED,QQYHRLPLS,nd,0/6,0/18
KSSQSVTYESLNKNSVA,WASTRES,QQYHRLPLS,nd,0/6,0/18
KSSQSMLYESRNKNSVA,GASTRES,QQYHRLTLS,nd,0/6,0/18
KLHQSVLYESRNKNSVA,HASTRED,QQYHRLPLS,nd,0/6,0/18
KSQQSVLDESRNKNSVA,TASTRES,QQYHRLELS,nd,0/6,0/18

Top 5 of the variants detected in all replicates, tightest first:

| CDR-L1 | CDR-L2 | CDR-L3 | mean log10 Kd (nM) | seen in | signal with controls |
|---|---|---|---|---|---|
| KLSQSFLYESRNKNNVA | DASTRES | QQYHRLPLS | -0.62 | 6/6 | 0/18 |
| KLQQSDLYESRNKNSVA | GASTRES | QQYHRLPLS | -0.35 | 6/6 | 3/18 |
| KLSESVLYESRNKNSVA | DASTRES | QQYHRLPLS | -0.30 | 6/6 | 2/18 |
| KLSQSMWYESRNKNSVA | NASTRES | QQYHRLPLS | -0.29 | 6/6 | 2/18 |
| KLMGSAEYESRNKNSVA | EASTRES | QQYHRLPLS | -0.29 | 6/6 | 1/18 |

A sequence measured in both rounds can read differently, since the two assays cover different ranges. Of ten entries with the parent sequence, four were seen in most replicates (averages 0.34 to 2.37), three in one and three in none, so single entries are noisy. The authors' rule: three or more of the six replicates give a measured affinity, fewer mean a poor binder.